# Measured affinities in a library of Ab-14 light chain variants

Binding partner: SARS-CoV-2 spike HR2 peptide, sequence PDVDLGDISGINAS.

Parent scFv Ab-14: VH joined to VL by a 15-residue (Gly4Ser)3 linker. Changes lie in the light chain CDRs alone.
VH: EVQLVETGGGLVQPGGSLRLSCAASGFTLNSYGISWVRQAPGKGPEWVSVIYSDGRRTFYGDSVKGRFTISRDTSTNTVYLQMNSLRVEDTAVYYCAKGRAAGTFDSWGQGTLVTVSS
VL: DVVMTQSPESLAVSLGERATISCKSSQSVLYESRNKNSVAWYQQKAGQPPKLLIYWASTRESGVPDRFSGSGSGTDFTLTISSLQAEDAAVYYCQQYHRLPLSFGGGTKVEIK

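The parent was found by panning a naive human phage display library on the peptide. AAYL50 was designed without a model: most single CDR substitutions and a random sample of double and triple ones. In AlphaSeq, yeast of one mating type display the scFv and yeast of the other type display the target. Binding brings cells together so that they mate, and sequencing counts the barcode pairs among the diploids. The ratio of observed to expected reads was calibrated, replicate by replicate, on BCL2-family standards whose Kd was known from biolayer interferometry. Mating was done three times.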

The parent's light chain CDRs are KSSQSVLYESRNKNSVA, WASTRES, QQYHRLPLS; each variant's own CDRs replace them letter for letter. Scale: log10 of Kd in nM, estimated from mating counts; low values are strong binders. Replicates are averaged; those with no signal do not enter the mean. "ND" marks a missing value. The strain was present, yet no cells mated with the target were sequenced in that replicate, which points to weak or no binding.

| CDR-L1 | CDR-L2 | CDR-L3 | replicates, log10 nM | log10 Kd (nM), mean | signal with controls |
|---|---|---|---|---|---|
| KSSQSVIWESRNKNSVA | WASTRHS | QQYHRLPLS | ND ND ND | ND | 1 of 9 (3.82) |
| KSSQSVLYSSRNKNSVA | WASTRIS | QQDHRLPLS | 2.94 2.07 3.40 | 2.80 | 1 of 9 (4.59) |
| KSSQSVLYESRIKNSVA | WASTRMS | QQYHRSPLS | ND ND ND | ND | 2 of 9 (3.59) |
| KSLMSVWYESRNKNSVA | WASTRES | QQYHRLPLS | 1.80 ND ND | 1.80 | 0 of 9 |
| KHSQSVLYESRNKNSVA | WASTCES | QQYHRLPFS | ND ND ND | ND | 2 of 9 (4.35) |
| KSSQSVLEEMRNKSSVA | WASTRES | QQYHRLPLS | 0.43 0.69 0.36 | 0.49 | 1 of 9 (3.42) |
| KSSQSVLYEYRNKNYMA | WASTRES | QQYHRLPLS | ND 2.44 ND | 2.44 | 1 of 9 (2.07) |
| KSSQSHLYEGRNKNSVA | WASQRES | QQYHRLPLS | 0.64 0.80 0.86 | 0.77 | 1 of 9 (3.99) |
| KSSQSVLYESRNKNSVA | WADTRES | KQYHPLPLS | ND ND ND | ND | 0 of 9 |
| KSSQSQLYESHNKNSVA | WASTRES | QQYKRLPLS | 0.38 1.01 0.62 | 0.67 | 0 of 9 |
| KSSQSVLYESRNKNSVA | MASTRES | QQQIRLPLS | 0.89 1.05 1.06 | 1.00 | 3 of 9 (4.03) |
| KSSQSVLYESCNKNSVA | WASTRES | QSYHMLPLS | 2.48 2.48 2.80 | 2.59 | 2 of 9 (3.59) |
| KSSQSVLYESRRKESVA | WASTRES | QQYWRLPLS | 2.61 2.05 2.10 | 2.25 | 2 of 9 (3.97) |
| KISQSVLYESRNKNSVA | WASTRES | YQYHDLPLS | 0.45 0.64 0.55 | 0.55 | 4 of 9 (4.39) |
| KASQSVLYETRNKHSVA | WASTRES | QQYHRLPLS | 0.69 1.14 0.85 | 0.89 | 1 of 9 (4.14) |
| KSSQMVLYGSPNKNSVA | WASTRES | QQYHRLPLS | 1.25 1.24 1.22 | 1.24 | 5 of 9 (4.43) |

Further variants, results first:

| replicates, log10 nM | log10 Kd (nM), mean | signal with controls | CDR-L1 | CDR-L2 | CDR-L3 |
|---|---|---|---|---|---|
| ND ND ND | ND | 0 of 9 | KSSQSKLYESRNKNSGA | YASTRES | QQYHRLPLS |
| ND 3.57 ND | 3.57 | 2 of 9 (3.81) | KSSQSVLYEYRNRNSVA | WASTRES | QQYHRPPLS |
| 1.13 2.79 1.53 | 1.81 | 0 of 9 | SSSASVLYESRNKNSVA | WASTRES | QQYHRLSLS |
| ND ND ND | ND | 3 of 9 (4.36) | KSSQSVLYESRWKNSVA | WASTRES | QQYHRLPAG |
| 4.15 ND ND | 4.15 | 1 of 9 (3.34) | KSSQSVLYEERNKNSVA | WAGTRES | QQYHREPLS |
| ND ND ND | ND | 0 of 9 | KSSQSVLYESRNKNSVA | WAFTRRS | QQYHRFPLS |
| 2.85 2.26 1.47 | 2.19 | 0 of 9 | CSSQSVLYESRNKNSVA | WASTREK | QQCHRLPLS |
| ND ND ND | ND | 0 of 9 | KSSQSVLYESWNPNSVA | WASTRES | QQYHRLPTS |
| ND ND 3.99 | 3.99 | 1 of 9 (4.03) | KSSQSVLYESRNKNSVT | WAFTRES | QQYHRLPLF |
| ND 4.65 4.48 | 4.56 | 2 of 9 (4.37) | KSSQSVLYESRNKNSVA | WASVRWS | QQYHRLFLS |
| ND 4.01 4.34 | 4.18 | 1 of 9 (3.62) | KSSQSVLYESRNKNWVA | WASTRES | QLYHRLPIS |
| ND ND ND | ND | 2 of 9 (2.83) | KSSQSVLYESRNKQSVA | WQSTRES | KQYHRLPLS |
| 3.13 ND ND | 3.13 | 3 of 9 (3.78) | KSSQSVLYESRNKNSVR | WASVRES | QQYHRLPLS |
| ND ND 4.91 | 4.91 | 4 of 9 (3.97) | KSSQSVLYCSRNKNSSA | WASTRES | QQFHRLPLS |
| ND ND ND | ND | 2 of 9 (3.34) | KSSQSGLYESRNKNQNA | WASTRES | QQYHRLPLS |
| ND ND ND | ND | 0 of 9 | KSSQSVAYETRNKNWVA | WASTRES | QQYHRLPLS |

For reference, 4 entries of the list once more:

CDR-L1,CDR-L2,CDR-L3,"replicates, log10 nM","log10 Kd (nM), mean",signal with controls
KSSQSVLYESRNKNSVA,WAFTRRS,QQYHRFPLS,ND ND ND,ND,0 of 9
KISQSVLYESRNKNSVA,WASTRES,YQYHDLPLS,0.45 0.64 0.55,0.55,4 of 9 (4.39)
KHSQSVLYESRNKNSVA,WASTCES,QQYHRLPFS,ND ND ND,ND,2 of 9 (4.35)
KSSQSVLYSSRNKNSVA,WASTRIS,QQDHRLPLS,2.94 2.07 3.40,2.80,1 of 9 (4.59)

For reference, the parent read 0.65 as the reference entry and 1.68 as a member of this library. Nonspecific signal, from three strains lacking the peptide, appeared in 18% of pairings of library AAYL50, centred on 4.19 (5% of these signals below 2.99); values are not corrected for it. For each scFv, signals with the empty controls are counted beside the result, with their mean in brackets.

Data: MIT Lincoln Laboratory AlphaSeq set, Engelhart et al. 2022, doi:10.1038/s41597-022-01779-4, as distributed in FLAb.